Results: patent US20110112308A1 (NOVARTIS AG, priority 2006, published 2011)

Tests used:
[1] = Approximate solubility in water and at pH 1 (supplemental testing); assay type: physicochemical; settings: for Form by XRPD of solid residue, Water: after equilibration in water > 20 hours
Experimental: An approximate solubility of the below-listed salts was determined in water and at pH 1 by suspending 5-15 mg of the salt in 1 mL of solvent. The samples were allowed to equilibrate at ambient temperature for at least 20 hours. The supernatant was filtered and used for the solubility determination, which was done gravimetrically, for the aqueous solubility, and by UV-VIS spectroscopy for pH 1. The solid residue was analyzed by XRPD. […] They were subsequently analyzed by XRPD and TGA, if the latter deemed necessary. Only irreversible or slowly reversible events can be detected.

[2] = Solubility, 24-hour equilibration at room temperature; assay type: physicochemical; settings: for Solubility: approx. at 25° C.
Experimental: Aqueous Solubility: A carefully weighted amount (20-50 mg) of sample is dissolved in 1 ml of solvent with 24-hour equilibration at room temperature. The solubility was determined either gravimetrically or by UV-VIS spectrometry. The pH of the clear solution was also measured. However, the difficulty of determining salt solubilities in water should be stressed, since upon dissolution dissociation to the free form is possible, which affects both the solubility and the pH. It's not unlikely that attempts to make solutions of a salt at a concentration well below the reported solubility of the salt to be unsuccessful (for a full discussion see: M. Pudipeddi, A. T. M. Serajuddin, D. J. W. Grant, and P. H. Stahl in “Handbook of Pharmaceutical Salts Properties Selection and Use” page 27 and references therein).

| approximate aqueous solubility [1] [µg/mL] | S (approximate solubility), pH 1 ([1]; EQ t > 20 hours, ambient temperature, UV-VIS) [mg/mL] | S (approximate solubility), Water ([1]; EQ t > 20 hours, ambient temperature, gravimetric) [µg/mL] | Form by XRPD of solid residue, Water [1] | Form by XRPD of solid residue, Water ([1]; listed as propionate) | aqueous solubility [2] [µg/mL] | solubility in alcohols, in words [2] | Solubility ([2]; 0.1N HCl) [mg/mL] | Solubility ([2]; 2-Propanol) | Solubility ([2]; Acetone) [mg/mL] | Solubility ([2]; Ethanol) | Solubility ([2]; Ethyl acetate) [mg/mL] | Solubility ([2]; Methanol) [mg/mL] | Solubility ([2]; Propylene glycol) [mg/mL] | Solubility ([2]; Water) [mg/mL] | approximate solubility in water as % ([2]; estimated from mg/mL assuming solution density 1 g/mL) | Solubility ([2]; pH = 6.8 buffer) [mg/mL] | Substance |
| --- | --- | --- | --- | --- | --- | --- | --- | --- | --- | --- | --- | --- | --- | --- | --- | --- | --- |
| ~4000 | 0.34 | 4190 | free base | free base only |  |  |  |  |  |  |  |  |  |  |  |  | 1:1 propionate salt of N-hydroxy-3-[4-[[[2-(2-methyl-1H-indol-3-yl)ethyl]amino]methyl]phenyl]-2E-2-propenamide |
|  |  |  |  |  | 3500 | limited | 0.4 | 0.3< mg/mL | 4.6 | 0.5< mg/mL | 3.9 | 2.6 | 7.2 | 3.5 | approximately 0.3% | 1.9 | 2:1 L-tartarate salt of N-hydroxy-3-[4-[[[2-(2-methyl-1H-indol-3-yl)ethyl]amino]methyl]phenyl]-2E-2-propenamide |
